Target: CLC-2 (Homo sapiens (Human), UniProt P51788)
Assay: IonWorks Barracuda automated patch-clamp electrophysiology, human CLC-2 cell line
Type: cell-based
Settings: read-out: IC50 (μM) against CLC-2, n = 4 cells, four concentrations of each compound

Amino acid sequences for entries named in this document (tags omitted).
UniProt P51788, whole entry: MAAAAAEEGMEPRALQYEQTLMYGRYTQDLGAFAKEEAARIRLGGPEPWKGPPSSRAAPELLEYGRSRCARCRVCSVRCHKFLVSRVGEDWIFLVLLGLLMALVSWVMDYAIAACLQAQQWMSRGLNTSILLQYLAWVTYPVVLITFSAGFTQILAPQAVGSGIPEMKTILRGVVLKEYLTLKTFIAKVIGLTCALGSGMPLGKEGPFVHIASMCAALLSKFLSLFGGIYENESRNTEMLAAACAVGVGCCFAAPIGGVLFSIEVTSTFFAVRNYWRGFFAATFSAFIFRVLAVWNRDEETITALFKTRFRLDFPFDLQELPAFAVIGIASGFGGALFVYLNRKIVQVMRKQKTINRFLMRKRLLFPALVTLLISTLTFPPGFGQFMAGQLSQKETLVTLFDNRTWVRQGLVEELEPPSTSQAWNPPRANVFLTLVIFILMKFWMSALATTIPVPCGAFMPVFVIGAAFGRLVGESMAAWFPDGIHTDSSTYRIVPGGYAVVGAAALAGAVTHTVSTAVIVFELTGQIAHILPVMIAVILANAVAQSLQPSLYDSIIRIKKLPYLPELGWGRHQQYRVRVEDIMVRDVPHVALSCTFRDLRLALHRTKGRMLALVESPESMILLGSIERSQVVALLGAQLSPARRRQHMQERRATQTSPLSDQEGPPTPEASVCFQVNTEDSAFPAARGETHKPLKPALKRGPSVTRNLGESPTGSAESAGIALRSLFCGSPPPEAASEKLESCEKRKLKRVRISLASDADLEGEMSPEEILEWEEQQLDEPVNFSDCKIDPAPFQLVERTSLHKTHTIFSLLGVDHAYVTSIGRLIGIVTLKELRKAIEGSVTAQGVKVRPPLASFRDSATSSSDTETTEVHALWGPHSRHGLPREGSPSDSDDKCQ

IC50: 37.9 µM
SMILES: Cc1ccc(Nc2c(Cl)ccc(C)c2Cl)c(C(=O)O)c1

— US11173137B2, “Compositions and methods to modulate chloride ion channel activity” (The Board of Trustees of the Leland Stanford Junior …, priority 2018, dated 2021)
